Test results from patent publication EP4847511A1, “COMPOUND WITH TRICYCLIC STRUCTURE, PHARMACEUTICAL COMPOSITION THEREOF AND USE THEREOF” (dated 2026).

The chains behind the UniProt entries cited, without tags or fusion partners. Where a name states a change or a piece, a line headed by the entry shows the natural chain unless it says otherwise.
UniProt P42336, whole entry: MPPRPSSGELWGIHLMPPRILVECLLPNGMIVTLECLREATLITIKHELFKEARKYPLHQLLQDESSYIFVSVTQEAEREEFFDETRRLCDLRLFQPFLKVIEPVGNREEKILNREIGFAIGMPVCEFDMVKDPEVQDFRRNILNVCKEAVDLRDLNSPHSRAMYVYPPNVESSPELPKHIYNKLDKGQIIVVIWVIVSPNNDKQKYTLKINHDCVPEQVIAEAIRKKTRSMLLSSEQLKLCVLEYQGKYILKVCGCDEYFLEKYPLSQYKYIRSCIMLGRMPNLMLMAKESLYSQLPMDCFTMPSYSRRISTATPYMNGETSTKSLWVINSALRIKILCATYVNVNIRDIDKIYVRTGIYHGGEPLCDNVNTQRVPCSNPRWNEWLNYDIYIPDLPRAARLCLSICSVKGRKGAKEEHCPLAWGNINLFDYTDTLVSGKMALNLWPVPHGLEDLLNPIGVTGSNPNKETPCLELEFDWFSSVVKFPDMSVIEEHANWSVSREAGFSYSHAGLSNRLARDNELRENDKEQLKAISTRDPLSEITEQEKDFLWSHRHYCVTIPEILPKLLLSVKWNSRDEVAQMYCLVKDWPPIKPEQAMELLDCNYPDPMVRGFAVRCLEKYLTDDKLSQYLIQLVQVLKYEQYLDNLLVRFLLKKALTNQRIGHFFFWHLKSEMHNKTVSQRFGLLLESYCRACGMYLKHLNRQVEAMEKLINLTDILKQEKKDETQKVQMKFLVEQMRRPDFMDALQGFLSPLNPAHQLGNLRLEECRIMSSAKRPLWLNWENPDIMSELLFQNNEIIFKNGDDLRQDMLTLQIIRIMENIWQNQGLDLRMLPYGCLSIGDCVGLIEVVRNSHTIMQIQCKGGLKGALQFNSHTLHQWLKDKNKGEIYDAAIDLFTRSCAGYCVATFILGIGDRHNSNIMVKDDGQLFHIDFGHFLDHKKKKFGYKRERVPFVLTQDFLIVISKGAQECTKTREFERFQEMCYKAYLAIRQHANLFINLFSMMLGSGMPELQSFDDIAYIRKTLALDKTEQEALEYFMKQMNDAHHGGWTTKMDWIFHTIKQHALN
UniProt P42336, whole entry H1047R: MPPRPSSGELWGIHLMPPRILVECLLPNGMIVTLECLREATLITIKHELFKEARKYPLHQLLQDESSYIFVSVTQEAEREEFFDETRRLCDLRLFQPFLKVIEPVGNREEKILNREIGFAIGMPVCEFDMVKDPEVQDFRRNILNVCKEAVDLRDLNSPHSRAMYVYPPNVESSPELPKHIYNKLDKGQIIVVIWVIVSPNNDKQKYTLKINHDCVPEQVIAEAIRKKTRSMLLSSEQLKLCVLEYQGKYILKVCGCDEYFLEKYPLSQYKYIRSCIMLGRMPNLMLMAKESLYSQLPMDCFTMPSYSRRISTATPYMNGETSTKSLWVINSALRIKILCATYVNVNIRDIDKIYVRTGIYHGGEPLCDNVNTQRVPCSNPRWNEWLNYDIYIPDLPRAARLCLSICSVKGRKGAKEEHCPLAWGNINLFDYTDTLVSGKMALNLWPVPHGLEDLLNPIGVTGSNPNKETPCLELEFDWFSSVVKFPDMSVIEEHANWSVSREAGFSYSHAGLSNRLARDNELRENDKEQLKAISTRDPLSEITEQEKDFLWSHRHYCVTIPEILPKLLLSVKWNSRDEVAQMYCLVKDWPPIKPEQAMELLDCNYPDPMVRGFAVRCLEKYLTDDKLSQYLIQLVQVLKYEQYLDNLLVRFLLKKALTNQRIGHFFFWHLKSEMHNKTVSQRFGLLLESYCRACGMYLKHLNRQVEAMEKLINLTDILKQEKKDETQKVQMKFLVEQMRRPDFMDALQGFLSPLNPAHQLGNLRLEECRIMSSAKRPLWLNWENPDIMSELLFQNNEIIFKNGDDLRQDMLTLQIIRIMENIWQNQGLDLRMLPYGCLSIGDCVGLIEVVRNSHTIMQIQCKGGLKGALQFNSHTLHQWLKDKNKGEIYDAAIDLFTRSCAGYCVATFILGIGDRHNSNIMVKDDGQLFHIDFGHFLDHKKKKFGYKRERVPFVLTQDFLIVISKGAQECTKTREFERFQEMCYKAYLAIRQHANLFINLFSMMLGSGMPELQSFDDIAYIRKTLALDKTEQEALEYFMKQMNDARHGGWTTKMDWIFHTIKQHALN
UniProt P27986, whole entry partner: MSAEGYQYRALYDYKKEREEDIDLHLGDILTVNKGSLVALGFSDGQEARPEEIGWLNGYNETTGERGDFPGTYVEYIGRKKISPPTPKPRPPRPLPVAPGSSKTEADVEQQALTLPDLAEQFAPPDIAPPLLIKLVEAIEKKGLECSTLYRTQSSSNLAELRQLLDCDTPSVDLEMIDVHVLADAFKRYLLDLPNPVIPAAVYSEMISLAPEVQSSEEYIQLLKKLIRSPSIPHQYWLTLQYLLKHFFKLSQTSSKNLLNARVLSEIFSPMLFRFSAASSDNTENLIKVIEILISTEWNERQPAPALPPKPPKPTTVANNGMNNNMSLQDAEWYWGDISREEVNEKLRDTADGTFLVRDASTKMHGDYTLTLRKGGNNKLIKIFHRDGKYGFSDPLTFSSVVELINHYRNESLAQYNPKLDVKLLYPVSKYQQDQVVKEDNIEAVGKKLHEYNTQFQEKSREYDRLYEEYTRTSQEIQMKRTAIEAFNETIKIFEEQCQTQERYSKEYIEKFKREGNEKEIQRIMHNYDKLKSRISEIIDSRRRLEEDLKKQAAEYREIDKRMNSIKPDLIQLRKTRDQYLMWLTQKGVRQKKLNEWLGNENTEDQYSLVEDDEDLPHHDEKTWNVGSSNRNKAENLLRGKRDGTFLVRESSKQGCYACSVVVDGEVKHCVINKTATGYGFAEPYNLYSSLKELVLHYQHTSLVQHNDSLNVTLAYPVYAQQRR

Legend:
PI3Kα H1047R = PI3Kα H1047R (Homo sapiens, UniProt P42336, H1047R); experiment: ADP-Glo Kinase Assay, enzyme activity inhibition of PI3Kα H1047R; details: read-out: PI3KαH1047R IC50, ATP 25µM, PIP2 50µg/mL, kinase 0.05µg/mL, room temperature 1 hour
Protocol: (§1) Effect Example IC50 of PI3Kα and PI3KαH1047R enzyme activity inhibition evaluation assay
(§2) The ADP-Glo Kinase Assay Kit was used for the experiments. The following buffer solutions were prepared: 50 mM HEPES, pH 7.5, 3 mM MgCl2, 1 mM EGTA, 100 mM NaCl, 0.03% CHAPS, 2 mM DTT. The tested compound samples were dissolved in DMSO and added to the screening system at a certain starting concentration of, for example, 10 µM, diluted 3-fold, while setting a DMSO control and an unkinase control. The optimal concentrations of PI3Kα, PI3Kα H1047R, substrate (PIP2) and ATP were prepared with buffers. The enzyme reaction system included: buffer, ATP 25µM, kinase substrate (PIP2, 50µg/mL), kinase PI3Kα (0.15µg/mL), PI3Kδ H1047R (0.05µg/mL), etc. The reaction system was reacted at room temperature for 1 hour, then terminated by adding a terminal reagent (ADP-Glo reagent, 5µL), and the ADP content in the system was detected using a detection reagent (Kinase Detection Reagent, 10µL). Signal data was collected using the Envision instrument. Calculated the % inhibition according to the following formula: % inhibition = (DMSO control signal value - sample signal value)/ (DMSO control signal value - unkinase control signal value). Inhibition curves were plotted using the formula Y=Bottom + (Top-Bottom)/(1+(IC50/X)^HillSlope) to obtain IC50 values and the results are as shown in Table 1.
(§3) Result + represents IC50 <= 250nM ++ represents 250 nM < IC50 < = 10µM +++ represents IC50 > 10 µM Table 1

PI3Kα = PI3Kα (Homo sapiens, UniProt P42336); experiment: ADP-Glo Kinase Assay, enzyme activity inhibition of PI3Kα; details: read-out: PI3Kα IC50, ATP 25µM, PIP2 50µg/mL, kinase PI3Kα 0.15µg/mL, room temperature 1 hour
Protocol: as §1, §2, §3

Compound	IC50 (PI3Kα H1047R)	IC50 (PI3Kα)
Nc1nc2ccc(-c3cc(NC(=O)c4cc(F)cc(C(F)(F)F)c4)c4c5c3CCN5C(=O)NC4c3cc(F)ccc3Cl)c(F)n2n1 (single isomer, unassigned) [Compound 45-p1]	< 250 nM	250 to 10000 nM
Nc1nc2ccc(-c3cc(NC(=O)c4cc(F)cc(C(F)(F)F)c4)c4c5c3CCN5C(=O)NC4c3cc(F)ccc3Cl)c(F)n2n1 (single isomer, unassigned) [Compound 45-p2]	250 to 10000 nM	250 to 10000 nM
O=C(Nc1cc(F)c2c3c1C(c1cc(Cl)ccc1Cl)NC(=O)N3CC2)c1cc(F)cc(C(F)(F)F)c1 (single isomer, unassigned) [Compound 48-p1]	250 to 10000 nM	> 10000 nM
O=C(Nc1cc(F)c2c3c1C(c1cc(Cl)ccc1Cl)NC(=O)N3CC2)c1cc(F)cc(C(F)(F)F)c1 (single isomer, unassigned) [Compound 48-p2]	250 to 10000 nM	250 to 10000 nM
COc1cc(-c2cc(NC(=O)c3cc(F)cc(C(F)(F)F)c3)c3c4c2CCN4C(=O)NC3c2cc(Cl)ccc2Cl)c(C#N)n2ncnc12 (single isomer, unassigned) [Compound 49-p1]	250 to 10000 nM	250 to 10000 nM

More lines, now with the values ahead:

IC50 (PI3Kα H1047R)	IC50 (PI3Kα)	Compound
< 250 nM	250 to 10000 nM	COc1cc(-c2cc(NC(=O)c3cc(F)cc(C(F)(F)F)c3)c3c4c2CCN4C(=O)NC3c2cc(Cl)ccc2Cl)c(C#N)n2ncnc12 (single isomer, unassigned) [Compound 49-p2]
250 to 10000 nM	250 to 10000 nM	Cn1nc2c(-c3ccccc3F)cc(NC(=O)c3cc(F)cc(C(F)(F)F)c3)c3c2c1C(=O)NC3c1cc(F)ccc1Cl (single isomer, unassigned) [Compound 50-p1]
< 250 nM	250 to 10000 nM	Cn1nc2c(-c3ccccc3F)cc(NC(=O)c3cc(F)cc(C(F)(F)F)c3)c3c2c1C(=O)NC3c1cc(F)ccc1Cl (single isomer, unassigned) [Compound 50-p2]
250 to 10000 nM	> 10000 nM	N#Cc1ncccc1-c1cc(NC(=O)c2cc(F)cc(C(F)(F)F)c2)c2c3c1CCN3C(=O)NC2c1cc(Cl)ccc1Cl (single isomer, unassigned) [Compound 51-p1]
< 250 nM	250 to 10000 nM	N#Cc1ncccc1-c1cc(NC(=O)c2cc(F)cc(C(F)(F)F)c2)c2c3c1CCN3C(=O)NC2c1cc(Cl)ccc1Cl (single isomer, unassigned) [Compound 51-p2]
250 to 10000 nM	> 10000 nM	Cn1nc2c(-c3ccccc3C#N)cc(NC(=O)c3cc(F)cc(C(F)(F)F)c3)c3c2c1C(=O)NC3c1cc(Cl)c(F)cc1Cl (single isomer, unassigned) [Compound 52-p1]
< 250 nM	250 to 10000 nM	Cn1nc2c(-c3ccccc3C#N)cc(NC(=O)c3cc(F)cc(C(F)(F)F)c3)c3c2c1C(=O)NC3c1cc(Cl)c(F)cc1Cl (single isomer, unassigned) [Compound 52-p2]
